# Test results taken from ChEMBL document CHEMBL1132484, “New alpha-substituted succinate-based hydroxamic acids as TNFalpha convertase inhibitors” (J Med Chem, 1999).
# Protein sequences, listed by entry. Tags and fused reporters are not part of them. Lines headed by an entry give the natural chain unless they say otherwise; changes in a name come on top.
# UniProt P78536: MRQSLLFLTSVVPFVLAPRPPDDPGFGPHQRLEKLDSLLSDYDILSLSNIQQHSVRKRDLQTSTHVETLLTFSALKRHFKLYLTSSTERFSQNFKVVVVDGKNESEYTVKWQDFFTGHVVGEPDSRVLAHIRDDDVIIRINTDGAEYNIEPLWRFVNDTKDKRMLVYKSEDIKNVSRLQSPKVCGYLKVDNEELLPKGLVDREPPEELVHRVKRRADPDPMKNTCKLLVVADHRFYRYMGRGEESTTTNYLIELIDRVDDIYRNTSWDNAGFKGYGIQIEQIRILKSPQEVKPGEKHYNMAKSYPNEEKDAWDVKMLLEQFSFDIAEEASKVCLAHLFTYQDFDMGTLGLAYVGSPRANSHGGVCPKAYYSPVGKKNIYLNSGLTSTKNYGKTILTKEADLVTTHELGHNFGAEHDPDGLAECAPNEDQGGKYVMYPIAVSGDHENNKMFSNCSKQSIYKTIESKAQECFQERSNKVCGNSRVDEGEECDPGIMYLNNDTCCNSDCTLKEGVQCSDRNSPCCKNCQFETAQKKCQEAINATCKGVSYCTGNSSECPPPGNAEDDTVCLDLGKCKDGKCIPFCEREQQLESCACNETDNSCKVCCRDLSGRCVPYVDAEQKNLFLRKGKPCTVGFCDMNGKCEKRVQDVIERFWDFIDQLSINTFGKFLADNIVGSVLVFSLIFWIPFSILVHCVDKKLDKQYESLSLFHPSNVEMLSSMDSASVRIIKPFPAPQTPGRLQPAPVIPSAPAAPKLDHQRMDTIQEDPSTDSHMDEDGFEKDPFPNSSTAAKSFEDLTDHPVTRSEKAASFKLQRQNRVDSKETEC
# Legend:
# [1] = molecular target: T1, Disintegrin and metalloproteinase domain-containing protein 17 (Homo sapiens, UniProt P78536); experiment: Inhibition of TNF(tumor necrosis factor) in human blood; type: functional
# [2] = molecular target: T1, Disintegrin and metalloproteinase domain-containing protein 17; experiment: Inhibitory activity against Tumor necrosis factor alpha-converting enzyme (TACE) in blood.; type: tissue-based
smiles,measurement,setting,value
"CNC(=O)[C@@H](NC(=O)C(CC(C)C)C(O)C(=O)NO)C(C)(C)C (single isomer, unassigned)",IC50,[1],7 µM
same,IC50,[2],0.0038 µM
